The values below come from PubChem BioAssay AID463075 (University of Pittsburgh Molecular Library Screening Center, 2010).

The structures appear in SMILES notation. “And” between values parts separate entries of the source, which are not always exact repeats. Equal values may be shown once. Only a part is listed here, and it is no random draw. The source made the active and inactive calls.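 How the source made its calls: active means activation, meaning protection from cell death, of at least 50% relative to plate controls; inactive means activation below 50%.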

The assay can be described thus: rescue of FADD-deficient Jurkat cells from TNF-alpha death – single concentration, primary screen (AID 463075).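 Further: necroptosis triggered by 40 ng/mL TNF-alpha added together with compound.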 The settings on record: Jurkat FADD-/- TNF necroptosis rescue, ATP luminescence, 24 h; at 10 µM; active compounds read high; 0 = TNF only, 100 = no-TNF cells.
`CCOP(=O)(Nc1ccccc1)OCC`: the activation (protection from cell death) was inactive: 0.284% and inactive: -0.215%.
Under `CC(=O)Nc1ccc([As](=O)(O)O)cc1` stands inactive: 0.454%; under `O=P(Nc1nc2ccc(Cl)cc2s1)(c1ccccc1)c1ccccc1`, inactive: 5.89%.
`CCN(N=Nc1nonc1N)c1nonc1N`: the activation (protection from cell death) was inactive: 1.8%.
As for `Nc1cccc2ccc([As](=O)(O)O)cc12`, the activation (protection from cell death) is inactive: 3.29%.
As for `O=C(Nc1cc([As](=O)(O)O)ccc1O)c1ccccc1`, the figure is inactive: 0.996%; as for `O=[N+]([O-])c1cccc(NC2=NCC(CBr)S2)c1` (stereo unspecified), inactive: -1.13%; as for `O=C(O)CNc1ccc([As](=O)(O)O)cc1`, inactive: 1.09%.
Regarding `CC(C)(C)C(=O)NC(Sc1ccncn1)C(Cl)(Cl)Cl` (stereo unspecified), the activation (protection from cell death) is inactive: 1.84%.
Under `O=[N+]([O-])c1ncn(CCn2ncnc2[N+](=O)[O-])n1` stands inactive: 0.788%; under `CC(=O)N1C2C3N(C(C)=O)C1C1N(C(C)=O)C(C(N1C(C)=O)N3C(C)=O)N2C(C)=O`, inactive: -1.16%.
As for `O=[N+]([O-])c1cccc2n[nH]nc12`, the figure is inactive: -0.648%; as for `O=[N+]([O-])c1cc([N+](=O)[O-])c(CCNc2ccccc2)c([N+](=O)[O-])c1`, inactive: -4.78%; as for `Cc1ccc(NP(=O)(Oc2ccccc2)Oc2ccccc2)nc1`, inactive: 1.11%.
As for `COc1ccc(C2=NCC(CBr)S2)cc1` (stereo unspecified), the figure is inactive: -0.701%.
As to `CN(C)C(=O)OCCc1n(C)cc[n+]1C`, the activation (protection from cell death) was inactive: 1.44%.
As for `CC(C)=N/N=C(\N)N[N+](=O)[O-]`, the figure is inactive: 0.432%; as for `CC1CCN(C(=O)Oc2c(Cl)cc(Cl)c3cccnc23)CC1`, inactive: -1.99%; as for `C[N+]1=C2C=CC=CC=C2SC12C([N+](=O)[O-])=CC([N+](=O)[O-])=C[C-]2[N+](=O)[O-]` (stereo unspecified), inactive: -23.4%.
On to `Nc1ccc([As](=O)(O)c2ccc(N)cc2)cc1`, for which the activation (protection from cell death) is inactive: 1.86%.
As for `CCN(/C(=N/P(=O)(N1CCOCC1)N1CCOCC1)N1CCOCC1)c1ccc(OC)cc1`, the activation (protection from cell death) is inactive: 0.226%.
